The entries are a selection whose mix differs from that of the whole data set. Some structures show a salt or complex split into parts, the way the source records it. Activity calls are given as the source filed them.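 How the source made its calls: active means fluorescence ratio B-score, a plate-corrected score, at least three library SD, with initial intensity B-score within 5 SD; inactive means the rest.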

Sequences of proteins named here, by UniProt entry; tags and fusion partners are left off.
UniProt P51787, whole entry: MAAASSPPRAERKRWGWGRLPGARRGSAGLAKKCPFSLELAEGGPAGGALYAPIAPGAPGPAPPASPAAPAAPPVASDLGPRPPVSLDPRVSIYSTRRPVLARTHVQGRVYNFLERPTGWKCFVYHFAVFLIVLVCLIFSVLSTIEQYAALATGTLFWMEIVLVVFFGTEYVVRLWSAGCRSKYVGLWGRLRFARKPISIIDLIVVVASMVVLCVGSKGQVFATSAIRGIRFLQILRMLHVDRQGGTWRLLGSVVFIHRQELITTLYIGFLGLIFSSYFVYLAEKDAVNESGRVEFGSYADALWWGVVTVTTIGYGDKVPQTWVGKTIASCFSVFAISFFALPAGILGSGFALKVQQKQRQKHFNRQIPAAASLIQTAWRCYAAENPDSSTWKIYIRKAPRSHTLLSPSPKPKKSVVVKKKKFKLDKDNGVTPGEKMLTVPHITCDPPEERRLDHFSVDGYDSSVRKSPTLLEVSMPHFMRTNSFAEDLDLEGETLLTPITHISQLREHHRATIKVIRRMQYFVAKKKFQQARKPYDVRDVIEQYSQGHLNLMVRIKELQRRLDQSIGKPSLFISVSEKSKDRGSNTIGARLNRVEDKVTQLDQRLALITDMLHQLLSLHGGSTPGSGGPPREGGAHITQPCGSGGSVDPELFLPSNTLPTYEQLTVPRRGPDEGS

For this test, the target named is Potassium voltage-gated channel subfamily KQT member 1 (Homo sapiens) (UniProt P51787). Description: potentiators or activators of KCNQ1 channel, primary screen, cell-based, thallium flux, high-throughput (AID 2648). Conditions: CHO-K1 KCNQ1, thallium flux FluxOR fluorescence; at 10 µM.
As to `CC(=O)NC(SC(=S)N(C)C)C(Cl)(Cl)Cl` (centres undefined), the result was inactive.

Take `O=[N+]([O-])c1cc([N+](=O)[O-])c(NCC2CCS(=O)(=O)C2)c([N+](=O)[O-])c1` (centres undefined): the outcome was inactive. With `Cc1cc(-c2cccc3ccccc23)c(C)cn1.O=[N+]([O-])c1cc([N+](=O)[O-])c(O)c([N+](=O)[O-])c1` the entry was “inactive”. For `O=[As](O)(c1ccccc1)c1ccc(O)cc1`, the result was inactive. In the case of `Nc1ccc([As](=O)(O)c2ccc([N+](=O)[O-])cc2)cc1`, the outcome was inactive. Take `C(Cc1nn[nH]n1)Cc1nn[nH]n1`: the outcome was inactive. With `O=C(OC1CN2CCC1CC2)c1cccc(Cl)c1` (centres undefined) the entry was “inactive”. Turning to `CP(=O)(Nc1ccc(SC(F)(F)F)cc1)Oc1ccc(F)cc1` (centres undefined), the result was inactive. With `CC(C)C(=O)NC(Sc1ccccc1)C(Cl)(Cl)Cl` (centres undefined), the result was inactive. In the case of `O=P(Nc1nccs1)(c1ccccc1)c1ccccc1`, the result was inactive.

Regarding `CCOP(C)(=S)SCC(=O)NC(C)(CC)C(=O)O` (centres undefined), the result was inactive.

Regarding `c1nnnn1CCn1cnnn1`, the outcome was inactive. Next, `CP(=O)(Nc1ccc2c(c1)OCCO2)Oc1ccccc1` (centres undefined): “inactive”; `CCOc1ccc(C2=NCC(CBr)S2)cc1` (centres undefined): “inactive”.

Turning to `O=P1(Nc2nc3ccc(Cl)cc3s2)COc2ccccc2O1` (centres undefined), the result was inactive. With `CP(=O)(Nc1ccccc1F)Oc1ccccc1` (centres undefined) the entry was “inactive”. Next, `CC(C)c1ccc(OP(C)(=O)Nc2ccc(SC(F)(F)F)cc2)cc1` (centres undefined): “inactive”; `CC(C)(C)C(=O)NC(Sc1ccccc1)C(Cl)(Cl)Cl` (centres undefined): “inactive”; `O=C(OC1CN2CCC1CC2)c1ccc([N+](=O)[O-])cc1` (centres undefined): “inactive”. As to `CC(=O)c1ccc(N2CC2c2ccncc2)cc1` (centres undefined), the outcome was inactive. On to `C[C@@H]1C=CCP(=O)(Oc2ccccc2)O1` (some centres undefined), for which the outcome was inactive. As to `C[C@H]1OP(=O)(Oc2ccccc2)C[C@@H]2O[C@@H]21` (some centres undefined), the outcome was inactive. Next, `O=C(OCCN1CCN(CCOCc2ccccc2)CC1)C(O)(c1ccccc1)c1ccccc1`: “inactive”; `CC(=O)Nc1ccc(Oc2c([N+](=O)[O-])cc([N+](=O)[O-])cc2[N+](=O)[O-])cc1`: “inactive”; `COc1ccc2c(c1O)-c1c(O)c(OC)cc3c1[C@H](C2)[N+](C)(C)CC3.O=[N+]([O-])c1cc([N+](=O)[O-])c([O-])c([N+](=O)[O-])c1[O-]`: “inactive”. Turning to `CC(=O)Nc1ccc([As](=O)(O)O)c(O)c1`, the result was inactive. With `CCNC(=S)/N=C(\N)N[N+](=O)[O-]`, the result was inactive. For `O=C(NC1CCS(=O)(=O)C1)NP(=S)(Oc1ccccc1)Oc1ccccc1` (centres undefined), the outcome was inactive. `CCOC(=O)NC(Sc1ccccc1)C(Cl)(Cl)Cl` (centres undefined): the result was inactive. With `Cc1ccc(NP(=O)(Oc2cccc(C)c2)Oc2cccc(C)c2)nc1` the entry was “inactive”; with `c1ccc(-c2nn[nH]n2)c(-c2nn[nH]n2)c1`, “inactive”; with `CCOC(=O)c1ccc(NP(C)(=O)Oc2ccc(F)cc2)cc1` (centres undefined), “inactive”. On to `COc1ccc(OP(C)(=O)Nc2ccc(SC(F)(F)F)cc2)cc1` (centres undefined), for which the result was inactive. Take `Cc1ccc(OP(=O)(Nc2ccccn2)Oc2ccc(C)cc2)cc1`: the result was inactive.

On to `CC(=O)NC(SC(=S)N(CC(C)C)CC(C)C)C(Cl)(Cl)Cl` (centres undefined), for which the outcome was inactive. `COC(=O)c1cc2c(s1)N=C(c1ccccc1)N(C)P2(=O)N1CCOCC1` (centres undefined): the outcome was inactive.

With `CCN(CC)CCCOC(=O)C(O)(c1ccccc1)C1CCCCC1` (centres undefined), the result was inactive. With `CCC(=O)N1C2C3N(C(=O)CC)C1C1N(C(=O)CC)C(C(N1C(=O)CC)N3C(=O)CC)N2C(=O)CC` the entry was “inactive”; with `O=C(OC1CN2CCC1CC2)c1ccccc1` (centres undefined), “inactive”. Next, `CP(=O)(Nc1ccccc1)Oc1ccc(F)cc1` (centres undefined): “inactive”; `CN(C)C(=O)Oc1noc2ccccc12`: “inactive”; `O=[N+]([O-])c1cc([N+](=O)[O-])c(OC2CCCCC2O)c([N+](=O)[O-])c1` (centres undefined): “inactive”. Regarding `CCCCCOc1ccc(NP(C)(=O)Oc2ccc(Cl)cc2Cl)cc1` (centres undefined), the outcome was inactive.

In the case of `Cc1ccccc1OP(=O)(Nc1ccccn1)Oc1ccccc1C`, the result was inactive.

Source of the values: PubChem BioAssay AID2648 (Johns Hopkins Ion Channel Center, 2010).
